According to US9844584B2, “Composition for preventing or treating sepsis” (priority 2012, dated 2017):

Tested on: rats with LPS induced sepsis
Format: in vivo, Sprague-Dawley rat
Method: In this experiment, after causing the inflammation associated with sepsis in Sprague-Dawley rat administered with the test substance, and then the PEP 1 blood nitric oxide (NO), and cytokines were measured.
Used Sprague-Dawley rat was a specific pathogen-free SPF rats which was obtained from Orient Bio (Gyeonggi-do, Republic of Korea Gapyeong mokdongri Buk-myeon).
8.5 weeks old, among 100 male rats with a body weight less than 250 g±20%, observations of seven days, 96 healthy males (mean 9.5 weeks, mean body weight (g) of ±20% or less) became targets of experiment which was carried out.
Divide the 48 rats in all four groups were administered the PEP 1 and/or LPS for each group.
All routes of administration were intravenous administration.
Specifically, the exemplary formulations and PEP 1 prepared in Example 2/or the LPS was administered by intravenous injection formulation.
Both times were administered once.
The dose was administered by calculating 2 mL/kg on the basis of the measured weight before administration to the last
Dosage of each group was carried out as in the following Table.
First, PEP 1 for all animal and/or blood sample was collected before administration of LPS on the day before by 0.8 mL.
All subjects were bled on the following day for the first administration of LPS administered according to the above table, LPS after 30 minutes from the time of administration, PEP 1 dose administration was performed for the subject group.
After completion of the administration of LPS administered every 75 minutes and 255 minutes from the time (i.e., PEP 1 from the time of administration of each 45 minutes and 195 minutes) at each blood sample was 0.8 mL.
With respect to the sampling of blood was used for analyzing cytokines.
TNF-α, IL-1b and IL-6 concentrations were measured which were the main indicator of cytokines in sepsis.

CC[C@H](C)[C@H](NC(=O)[C@H](Cc1ccccc1)NC(=O)[C@H](CCCNC(=N)N)NC(=O)[C@H](CC(C)C)NC(=O)[C@H](CCCNC(=N)N)NC(=O)[C@H](CO)NC(=O)[C@@H](NC(=O)[C@H](CC(C)C)NC(=O)[C@H](CC(C)C)NC(=O)[C@H](C)NC(=O)[C@@H]1CCCN1C(=O)[C@H](CCCNC(=N)N)NC(=O)[C@H](C)NC(=O)[C@@H](N)CCC(=O)O)[C@@H](C)O)C(=O)N1CCC[C@H]1C(=O)N[C@@H](CCCCN)C(=O)O [PEP 1]
concentration of TNF-α in the blood (LPS 0.5 mg/kg i.v., PEP 1 1.5 mg/kg i.v. single dose 30 minutes after LPS, blood 195 minutes after PEP 1, vs LPS alone, FIG. 1): significantly reduced
concentration of IL6 in the blood (LPS 0.5 mg/kg i.v., PEP 1 1.5 mg/kg i.v. single dose 30 minutes after LPS, blood 195 minutes after PEP 1, vs LPS alone, FIG. 2): significantly reduced
concentration of IL1b in the blood (LPS 0.5 mg/kg i.v., PEP 1 1.5 mg/kg i.v. single dose 30 minutes after LPS, blood 195 minutes after PEP 1, vs LPS alone, FIG. 3): significantly reduced
survival of rats (single dose of 1.5 mg/kg, intravenous): all rats were found to be alive
